# Results taken from patent US20050227220A1, “Compositions and Methods for Evaluating and Designing Nuclear Receptor Ligands that Modulate Co-Regulator Affinity” (priority 2002, published 2005).
# By UniProt entry, the sequences of proteins in these tests, tags left out. Residues count along the entry.
# UniProt P37231, 234-505: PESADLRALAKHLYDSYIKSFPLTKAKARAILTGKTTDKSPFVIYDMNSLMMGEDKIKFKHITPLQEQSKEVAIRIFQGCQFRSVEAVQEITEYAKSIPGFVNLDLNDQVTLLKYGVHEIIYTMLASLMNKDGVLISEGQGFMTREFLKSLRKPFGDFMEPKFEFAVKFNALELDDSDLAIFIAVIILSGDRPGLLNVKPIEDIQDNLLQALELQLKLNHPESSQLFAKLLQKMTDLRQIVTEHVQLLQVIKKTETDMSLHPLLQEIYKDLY
# Columns and labels:
# [1] = target: T1, PPARγ LBD (Homo sapiens, UniProt P37231); test: FRET assay: ligand effect on CBP fragment / NCoR ID-C binding to PPAR LBD; assay type: biochemical; conditions: 10 nM PPAR LBD, CBP (57-454)
# T1 construct: made in house; host or cells: bacterial BL21-DE3, vector pRSETA
# Source text: The experimentally determined α value is the ratio of cofactor affinities in the presence and absence of a saturating concentration of ligand. This analysis permits a direct comparison of the effects of compounds, independent of cofactor concentration and differences in coregulator affinity for the individual receptors. […] 98(9): p.
# The effects of the coregulator environment on the apparent affinities and selectivities of various ligands were than examined. Experimentally determined pKs and the α values derived from the FRET assay were used to calculate the apparent affinity of the ligand for the receptor/cofactor complex (i.e. K/α).
# FIG. 5 illustrates the effect of ligands on coactivator and corepressor binding to PPAR subtypes determined by FRET.
# [2] = target: PPARγ ligand binding domain (Homo sapiens, UniProt P37231); test: Surface plasmon resonance: effect of compounds on co-repressor peptide binding to PPAR LBD; conditions: SPR equilibrium response, immobilized biotinylated peptides
compound,measurement,setting,value
CN(CCOc1ccc(C[C@H](Nc2ccccc2C(=O)c2ccccc2)C(=O)O)cc1)c1ccccn1 [GW1929],effect on apparent affinity of PPARγ for the co-activator fragment from CBP,[1],increased the apparent affinity
same,effect on binding of PPARγ LBD to the NCOR- and SMRT-derived co-repressor peptides,[2],decreased the binding
